Values of other authors as cited in patent US4230456A, “Element and assay for albumin” (Eastman Kodak Company, priority 1978, dated 1980).

Conditions: plasma protein

In the case of “Albumin: smallest and most abundant of plasma proteins”, the half-life is given as “four”.
